Bioassay records deposited in PubChem BioAssay by ICCB-Longwood Screening Facility, Harvard Medical School.
HCMV NEC inh: disrupts HCMV UL50-UL53 complex binding. HTRF UL50-UL53 interaction, normalized percent inhibition. inhibition, % (concentration not given with the values). actives 0.15% (n = 190,000); in the data active means inhibition above about 27%, passing the limit was not always enough
GIV-Gai inh: blocks GIV peptide binding to rat Galpha-i3. P08753. Galpha-i3/FITC-GIV peptide fluorescence polarization, 90 min; stronger effect = lower value; scaled: aluminum fluoride 0%, vehicle 100%. percent of control (FP), % (concentration not given with the values). hit rate 0.42% among 210,000. AID 1224905;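 active means replicate mean at 85% of control or lower, very high polarization wells dropped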;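 further: wells of about 15 µL received 100 nL stock; the first replicate is given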
GIV-Gai FP conf: GIV-Galpha-i3 inhibition, FP confirmation. AID 1259350. fluorescence polarization, mP at 100 µM. shares compounds with GIV-Gai inh. FITC-GIV peptide binding to Galphai3, fluorescence polarization; hits give low values. actives 38% (n = 580);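 active means inhibition score of 15 or more, meaning 100 minus mean polarization as percent of control over three replicates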;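 further: lower mP means peptide displaced from Galphai3 so more inhibition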
GIV Gai AS conf: GIV-Galpha-i3 inhibition, AlphaScreen confirmation | AlphaScreen counts at 100 µM | AlphaScreen Galphai3-GIV binding, purified proteins, 90 min; hits give low values | actives 39% (n = 580) | AID 1259351 | shares compounds with GIV-Gai inh;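 active means inhibition score at or above a set limit, where the score is 100 minus the three-replicate mean percent of control signal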
Starred values were filed as active, the others as inactive; x = not tested or not shown. This is a sample that favours compounds with a hit; in the whole collection about 0.46% have one here.

The opening 2 entries as a preview:
SMILES | HCMV NEC inh | GIV-Gai inh | GIV-Gai FP conf | GIV Gai AS conf
O=C1NC(=O)N(c2ccccc2)C(=O)/C1=C/c1ccccc1 | 6 | 97 | x | x
O=C1NC(=O)C(=Cc2ccccc2)C(=O)N1 | 99* | 29* | 32* | 27826*

The whole of this part, previewed entries included:
SMILES | HCMV NEC inh | GIV-Gai inh | GIV-Gai FP conf | GIV Gai AS conf
O=C1NC(=O)N(c2ccccc2)C(=O)/C1=C/c1ccccc1 | 6 | 97 | x | x
O=C1NC(=O)C(=Cc2ccccc2)C(=O)N1 | 99* | 29* | 32* | 27826*
COc1cc(C=C2C(=O)NC(=O)NC2=O)ccc1OS(=O)(=O)c1ccccc1[N+](=O)[O-] | 51* | 71* | 58 | 54298
COc1cc(/C=C2\C(=O)NC(=O)N(c3ccccc3)C2=O)c([N+](=O)[O-])cc1OC | x | 111 | x | x
Cc1cc2oc(=O)c3c(c2c(O)c1CN1CCCCC1)CCCC3 | -4 | x | x | x
Cc1nc(-c2ccncc2)nc2c1CC(=O)N2CCN1CCOCC1 | x | 106 | x | x
O=C(COc1ccc(C=C2C(=O)NC(=O)NC2=O)cc1)NCC1CCCO1 (stereo not given) | -23 | 102 | x | x
CCSCc1cc(OC(=O)N(C)C)nc(-c2ccc(C(F)(F)F)cc2)n1 | 0 | 99 | x | x
